Amino acid sequences for entries named in this document (tags omitted). A change or cut given only in a name is not applied to a line headed by its entry.
UniProt P12931, whole entry, looked up: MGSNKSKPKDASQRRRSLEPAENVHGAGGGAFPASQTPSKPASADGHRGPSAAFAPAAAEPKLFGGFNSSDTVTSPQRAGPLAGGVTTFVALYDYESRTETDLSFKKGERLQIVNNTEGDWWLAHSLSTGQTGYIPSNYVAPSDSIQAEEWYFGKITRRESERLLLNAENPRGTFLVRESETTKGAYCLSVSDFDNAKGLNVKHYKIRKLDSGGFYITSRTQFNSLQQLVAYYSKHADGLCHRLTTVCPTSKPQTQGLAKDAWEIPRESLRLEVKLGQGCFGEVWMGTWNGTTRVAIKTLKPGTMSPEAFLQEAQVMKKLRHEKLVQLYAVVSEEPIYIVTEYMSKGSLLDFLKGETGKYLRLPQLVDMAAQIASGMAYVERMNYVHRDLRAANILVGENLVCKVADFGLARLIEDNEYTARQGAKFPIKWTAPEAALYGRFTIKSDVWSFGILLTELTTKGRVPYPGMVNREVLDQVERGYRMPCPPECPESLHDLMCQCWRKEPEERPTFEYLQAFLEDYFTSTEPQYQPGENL
UniProt P49840: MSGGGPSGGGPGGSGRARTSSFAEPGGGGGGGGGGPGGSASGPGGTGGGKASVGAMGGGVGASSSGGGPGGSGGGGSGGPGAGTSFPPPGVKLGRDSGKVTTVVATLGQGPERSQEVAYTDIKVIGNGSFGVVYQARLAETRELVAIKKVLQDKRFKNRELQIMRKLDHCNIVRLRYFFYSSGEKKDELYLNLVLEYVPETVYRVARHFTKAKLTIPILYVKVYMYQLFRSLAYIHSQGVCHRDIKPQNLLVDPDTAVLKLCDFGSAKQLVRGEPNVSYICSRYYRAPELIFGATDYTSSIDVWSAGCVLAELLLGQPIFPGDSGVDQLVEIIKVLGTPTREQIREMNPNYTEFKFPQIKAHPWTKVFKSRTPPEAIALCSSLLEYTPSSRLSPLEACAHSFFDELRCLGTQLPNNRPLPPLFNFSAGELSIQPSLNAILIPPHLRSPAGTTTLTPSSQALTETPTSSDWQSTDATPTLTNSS

In patent publication US9732063B2, “Kinase inhibitors” (RESPIVERT LIMITED, priority 2012, dated 2017):

What was measured:
c-Src = c-Src (Homo sapiens (Human), UniProt P12931); test: c-Src enzyme inhibition (Z-LYTE FRET); format: biochemical
Procedure: (§1) The enzyme inhibitory activities of compounds disclosed herein are determined by FRET using synthetic peptides labelled with both donor and acceptor fluorophores (Z-LYTE, Invitrogen Ltd., Paisley, UK).
(§2) The relevant enzyme (3000 ng/mL or 2000 ng/mL respectively, 2.5 μL) is incubated with the test compound (either 4 μg/mL, 0.4 μg/mL, 0.04 μg/mL, or 0.004 μg/mL, 2.5 μL each) for 2 hr at RT. The FRET peptides (8 μM, 2.5 μL), and appropriate ATP solutions (2.5 μL, 800 μM for c-Src, and 60 μM ATP for Syk) are then added to the enzymes/compound mixtures and incubated for 1 hr. Development reagent (protease, 5 μL) is added for 1 hr prior to detection in a fluorescence microplate reader (Varioskan® Flash, ThermoFisher Scientific).
(§3) In all cases, the site-specific protease cleaves non-phosphorylated peptide only and eliminates the FRET signal. Phosphorylation levels of each reaction are calculated using the ratio of coumarin emission (donor) over fluorescein emission (acceptor), for which high ratios indicate high phosphorylation and low ratios indicate low phosphorylation levels.

GSK3α = GSK3α (Homo sapiens (Human), UniProt P49840); test: GSK 3α enzyme inhibition (Z-LYTE FRET, Method 2); format: biochemical
Procedure: as §1
The inhibitory activities of compounds of the invention against the GSK 3α enzyme isoform (Invitrogen), are evaluated by determining the level of activation/phosphorylation of the target peptide. The GSK3-α protein (500 ng/mL, 2.5 μL) is mixed with the test compound (2.5 μL at either 4 μg/mL, 0.4 μg/mL, 0.04 μg/mL, or 0.004 μg/mL) for 2 hr at RT. The FRET peptide (8 μM, 2.5 μL), which is a phosphorylation target for GSK3α, and ATP (40 μM, 2.5 μL) are then added to the enzyme/compound mixture and the resulting mixture incubated for 1 hr. Development reagent (protease, 5 μL) is added for 1 hr prior to detection in a fluorescence microplate reader (Varioskan® Flash, ThermoFisher Scientific).
as §3

Syk = Syk (Homo sapiens (Human), UniProt P43405); test: Syk enzyme inhibition (Z-LYTE FRET); format: biochemical
Procedure: as §1, §2, §3

TNBS-induced colitis = settings: dosed orally at 1 or 5 mg/kg, 2 days

COc1ccc(-n2nc(C(C)(C)C)cc2NC(=O)Nc2ccc(Oc3ccnc(Nc4cccc(OS(C)(=O)=O)c4)n3)c3ccccc23)cn1 [Example 3, 3-(4-((4-(3-(3-(tert-Butyl)-1-(6-methoxypyridin-3-yl)-1H-pyrazol-5-yl)ureido)naphthalen-1-yl)oxy)pyrimidin-2-yl)amino)phenyl methanesulfonate] gave an IC50 (c-Src) of 16 nM.

For COCCOCCOCCOc1cccc(Nc2nccc(Oc3ccc(NC(=O)Nc4cc(C(C)(C)C)nn4-c4ccc(OC)nc4)c4ccccc34)n2)c1 [Example 4, 1-(3-(tert-Butyl)-1-(6-methoxypyridin-3-yl)-1H-pyrazol-5-yl)-3-(4-((2-((3-(2-(2-(2-methoxy-ethoxy)ethoxy)ethoxy)phenyl)amino)pyrimidin-4-yl)oxy)naphthalen-1-yl)urea], the IC50 (GSK3α) was 0.973 µM.

For C#Cc1cccc(Nc2nccc(Oc3ccc(NC(=O)Nc4cc(C(C)C)nn4-c4ccc(C)cc4)c4ccccc34)n2)c1 [Example 10, 1-(4-((2-((3-Ethynylphenyl)amino)pyrimidin-4-yl)oxy)naphthalen-1-yl)-3-(3-isopropyl-1-(p-tolyl)-1H-pyrazol-5-yl)urea], the IC50 (GSK3α) was > 10 µM.

In the case of COc1cc(Nc2nccc(Oc3ccc(NC(=O)Nc4cc(C(C)C)nn4-c4ccc(C)cc4)c4ccccc34)n2)cc(OS(C)(=O)=O)c1 [Example 12, 3-((4-((4-(3-(3-Isopropyl-1-(p-tolyl)-1H-pyrazol-5-yl)ureido)naphthalen-1-yl)oxy)pyrimidin-2-yl)amino)-5-methoxyphenyl methanesulfonate], the IC50 (GSK3α) is reported as > 10 µM.

For COCCOCCOCCOc1cc(Nc2nccc(Oc3ccc(NC(=O)Nc4cc(C(C)C)nn4-c4ccc(C)cc4)c4ccccc34)n2)cc(OC)c1 [Example 13, 1-(3-Isopropyl-1-(p-tolyl)-1H-pyrazol-5-yl)-3-(4-((2-((3-methoxy-5-(2-(2-(2-methoxy-ethoxy)ethoxy)ethoxy)phenyl)amino)pyrimidin-4-yl)oxy)naphthalen-1-yl)urea], the IC50 (Syk) was 17 nM and the “activity in in vivo model of colonic inflammation (histopathology analysis)” value (from here on “activity … (histopathology analysis)”) (TNBS-induced colitis) was “significant activity”.

Work on Cc1ccc(-n2nc(C(C)C)cc2NC(=O)Nc2ccc(Oc3ccnc(Nc4cccc(N=S(C)(C)=O)c4)n3)c3ccccc23)cc1 [Example 14] yielded an IC50 (GSK3α) of 0.416 µM.

For C#Cc1cc(Nc2nccc(Oc3ccc(NC(=O)Nc4cc(C(C)C)nn4-c4ccc(C)cc4)c4ccccc34)n2)cc(OC)c1 [Example 15, 1-(4-((2-((3-Ethynyl-5-methoxyphenyl)amino)pyrimidin-4-yl)oxy)naphthalen-1-yl)-3-(3-isopropyl-1-(p-tolyl)-1H-pyrazol-5-yl)urea], the IC50 (GSK3α) was > 10 µM.

COc1cc(Nc2nccc(Oc3ccc(NC(=O)Nc4cc(C(C)C)nn4-c4ccc(C)cc4)c4ccccc34)n2)cc(S(=O)(=O)C2CC2)c1 [Example 18, 1-(4-((2-((3-(Cyclopropylsulfonyl)-5-methoxyphenyl)amino)pyrimidin-4-yl)oxy)naphthalen-1-yl)-3-(3-isopropyl-1-(p-tolyl)-1H-pyrazol-5-yl)urea] was tested, and the “activity … (histopathology analysis)” value (TNBS-induced colitis) was “significant activity”.

COc1cc(Nc2nccc(Oc3ccc(NC(=O)Nc4cc(C(C)C)nn4-c4ccc(C)cc4)c4ccccc34)n2)cc(OCCOCCOCCO)c1 [Example 20, 1-(4-((2-((3-(2-(2-(2-Hydroxyethoxy)ethoxy)ethoxy)-5-methoxyphenyl)amino)pyrimidin-4-yl)oxy)naphthalen-1-yl)-3-(3-isopropyl-1-(P-tolyl)-1H-pyrazol-5-yl)urea] showed an IC50 (GSK3α) of 3.84 µM.

COc1cc(Nc2nccc(Oc3ccc(NC(=O)Nc4cc(C(C)C)nn4-c4ccc(C)cc4)c(Cl)c3Cl)n2)cc(OCCN2CCOCC2)c1 [Example 21, 1-(2,3-Dichloro-4-((2-((3-methoxy-5-(2-morpholinoethoxyl)phenyl)amino)pyrimidin-4-yl)-oxy)phenyl)-3-(3-isopropyl-1-(p-tolyl)-1H-pyrazol-5-yl)urea] was tested, and the IC50 (GSK3α) was > 10 µM.

For COc1cc(Nc2nccc(Oc3ccc(NC(=O)Nc4cc(C(C)C)nn4-c4ccc(C)cc4)c4ccccc34)n2)cc(SCCO)c1 [Example 22], the IC50 (GSK3α) was 4.83 µM and the “activity … (histopathology analysis)” value (TNBS-induced colitis) was “significant activity”.

Compound COCCOCCOCCOc1cc(Nc2nccc(Oc3ccc(NC(=O)Nc4cc(C(C)C)nn4-c4ccc(C)cc4)c(Cl)c3Cl)n2)cc(OC)c1 [Example 35, 1-(2,3-Dichloro-4-((2-((3-methoxy-5-(2-(2-(2-methoxyethoxy)ethoxy)ethoxy)phenyl)-amino)pyrimidin-4-yl)oxy)phenyl)-3-(3-isopropyl-1-(p-tolyl)-1H-pyrazol-5-yl)urea] has an IC50 (Syk) of 30 nM.

COCCOCCOCCOc1cc(Nc2nccc(Oc3ccc(NC(=O)Nc4cc(C(C)(C)C)nn4-c4ccc(OC)cc4)c4ccccc34)n2)cc(OC)c1 [Example 44, 1-(3-(tert-Butyl)-1-(4-methoxyphenyl)-1H-pyrazol-5-yl)-3-(4-((2-((3-methoxy-5-(2-(2-(2-methoxyethoxy)ethoxy)ethoxy)phenyl)amino)pyrimidin-4-yl)oxy)naphthalen-1-yl)urea] was tested, and the IC50 (GSK3α) was 4.61 µM and the “activity … (histopathology analysis)” value (TNBS-induced colitis) was “significant activity”.

In the case of COc1cc(Nc2nccc(Oc3ccc(NC(=O)Nc4cc(C(C)(C)C)nn4-c4ccc(C)cc4)c4ccccc34)n2)cc(S(=O)(=O)C2CC2)c1 [Example 47, 1-(3-(tert-Butyl)-1-(p-tolyl)-1H-pyrazol-5-yl)-3-(4-((2-((3-(cyclopropylsulfonyl)-5-methoxy-phenyl)amino)pyrimidin-4-yl)oxy)naphthalen-1-yl)urea], the IC50 (Syk) is reported as 119 nM and the “activity … (histopathology analysis)” value (TNBS-induced colitis) is reported as “significant activity”.

COCCOCCOCCOCCOCCOCCOCCOc1cc(Nc2nccc(Oc3ccc(NC(=O)Nc4cc(C(C)(C)C)nn4-c4ccc(C)cc4)c4ccccc34)n2)cc(OC)c1 [Example 51, 1-(4-((2-((3-(2,5,8,11,14,17,20-Heptaoxadocosan-22-yloxy)-5-methoxyphenyl)amino)pyrimidin-4-yl)oxy)naphthalen-1-yl)-3-(3-(tert-butyl)-1-(p-tolyl)-1H-pyrazol-5-yl)urea] was tested, and the “activity … (histopathology analysis)” value (TNBS-induced colitis) was “significant activity”.

For COCCOCCOCCOc1cc(Nc2cc(Oc3ccc(NC(=O)Nc4cc(C(C)(C)C)nn4-c4ccc(C)cc4)c4ccccc34)ccn2)cc(OC)c1 [Example 56, 1-(3-(tert-Butyl)-1-(p-tolyl)-1H-pyrazol-5-yl)-3-(4-((2-((3-methoxy-5-(2-(2-(2-methoxyethoxy)ethoxy)ethoxy)phenyl)amino)pyridin-4-yl)oxy)naphthalen-1-yl)urea], the IC50 (GSK3α) was > 10 µM and the “activity … (histopathology analysis)” value (TNBS-induced colitis) was “significant activity”.

Work on COc1cc(Nc2nccc(Oc3ccc(NC(=O)Nc4cc(C(C)(C)C)nn4-c4ccc(C)cc4)c(Cl)c3Cl)n2)cc(OCCN2CCOCC2)c1 [Example 59, 1-(3-(tert-Butyl)-1-(p-tolyl)-1H-pyrazol-5-yl)-3-(2,3-dichloro-4-((2-((3-methoxy-5-(2-morpholinoethoxy)phenyl)amino)pyrimidin-4-yl)oxy)phenyl)urea] yielded an IC50 (GSK3α) of 7.37 µM.

In the case of COc1cc(Nc2nccc(Oc3ccc(NC(=O)Nc4cc(C(C)(C)C)nn4-c4ccc(OC)nc4)c4ccccc34)n2)cc(S(=O)(=O)C2CC2)c1 [Example 61, 1-(3-(tert-Butyl)-1-(6-methoxypyridin-3-yl)-1H-pyrazol-5-yl)-3-(4-((2-((3-(cyclopropylsulfonyl)-5-methoxyphenyl)amino)pyrimidin-4-yl)oxy)naphthalen-1-yl)urea], the IC50 (Syk) is reported as 120 nM.

COc1cc(Nc2nccc(Oc3ccc(NC(=O)Nc4cc(C(C)(C)C)nn4-c4ccc(C)cc4)c4ccccc34)n2)cc(OCCOCCOCCO)c1 [Example 62, 1-(3-(tert-Butyl)-1-(P-tolyl)-1H-pyrazol-5-yl)-3-(4-((2-((3-(2-(2-(2-hydroxyethoxy)ethoxy)ethoxy)-5-methoxyphenyl)amino)pyrimidin-4-yl)oxy)naphthalen-1-yl)urea] showed an IC50 (GSK3α) of 1.03 µM.

Compound COCCOCCOCCOc1cc(Nc2nccc(Oc3ccc(NC(=O)Nc4cc(C(C)(C)C)nn4-c4ccc(N(C)C)cc4)c4ccccc34)n2)cc(OC)c1 [Example 63, 1-(3-(tert-Butyl)-1-(4-(dimethylamino)phenyl)-1H-pyrazol-5-yl)-3-(4-((2-((3-methoxy-5-(2-(2-(2-methoxyethoxy)ethoxy)ethoxy)phenyl)amino)pyrimidin-4-yl)oxy)naphthalen-1-yl)urea] has an IC50 (Syk) of 16 nM.

For COCCOCCOCCN(C)c1cc(Nc2nccc(Oc3ccc(NC(=O)Nc4cc(C(C)(C)C)nn4-c4ccc(C)cc4)c4ccccc34)n2)cc(OC)c1 [Example 67, 1-(3-(tert-Butyl)-1-(p-tolyl)-1H-pyrazol-5-yl)-3-(4-((2-((3-methoxy-5-((2-(2-(2-methoxyethoxy)ethoxy)ethyl)(methyl)amino)phenyl)amino)pyrimidin-4-yl)oxy)naphthalen-1-yl)urea], the IC50 (GSK3α) was 5.26 µM.
